From PubChem BioAssay AID488839 (Broad Institute, 2010)
The other results are listed elsewhere or left out. The source made the active and inactive calls.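 The calls were made as follows: active = highest replicate inhibition of at least 50% and at least 75% of replicates reaching 50%; inconclusive = only one of the two criteria met; inactive = both criteria failed.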

Amino acid sequences for entries named in this document (tags omitted). A change or cut given only in a name is not applied to a line headed by its entry.
UniProt Q00535, whole entry, looked up: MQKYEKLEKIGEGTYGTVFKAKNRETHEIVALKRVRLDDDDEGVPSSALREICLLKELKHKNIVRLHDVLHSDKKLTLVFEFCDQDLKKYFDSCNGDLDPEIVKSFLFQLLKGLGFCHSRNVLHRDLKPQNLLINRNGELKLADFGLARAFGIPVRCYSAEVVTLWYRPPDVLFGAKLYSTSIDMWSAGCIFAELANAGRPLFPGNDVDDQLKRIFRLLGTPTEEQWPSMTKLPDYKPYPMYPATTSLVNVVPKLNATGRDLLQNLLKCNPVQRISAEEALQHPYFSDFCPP
UniProt Q15078: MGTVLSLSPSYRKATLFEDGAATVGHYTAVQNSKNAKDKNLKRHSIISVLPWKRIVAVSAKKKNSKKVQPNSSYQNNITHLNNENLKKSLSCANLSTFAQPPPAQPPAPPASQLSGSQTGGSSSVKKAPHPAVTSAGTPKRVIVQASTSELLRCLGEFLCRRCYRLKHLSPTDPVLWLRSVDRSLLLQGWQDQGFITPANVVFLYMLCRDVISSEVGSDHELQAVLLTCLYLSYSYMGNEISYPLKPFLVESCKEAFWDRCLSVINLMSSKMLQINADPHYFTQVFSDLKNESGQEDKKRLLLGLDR

The molecules below were run against Cyclin-dependent kinase 5 (Homo sapiens) + Cyclin-dependent kinase 5 activator 1 (Homo sapiens) (UniProt Q00535+Q15078) (assay: inhibitors of human CDK5/p35 kinase, primary screen, biochemical, single concentration (AID 488839;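 also: plate controls were DMSO neutral control for no effect and GW8510 at 10 µM for full effect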)). Settings: Recombinant CDK5/p35, ADP-Glo luminescence, 60 min; at 10 µM; hits give high values.

| Compound | inhibition |
| --- | --- |
| O=[As](O)(c1cccc(O)c1)c1cccc(O)c1 | inactive: -0.335% |
| O=C(OC1CN2CCC1CC2)c1ccc(Cl)cc1 (configuration not stated) | inactive: 0.565% |
| CS(=O)(=O)c1ccc(Cl)c(NC(=O)COC(=O)C(O)(c2ccccc2)c2ccccc2)c1 | inactive: -2.21% |
| O=[As](O)(O)c1cccnc1 | inactive: 0.263% |
| COc1cc(C(=O)NCC2(N3CCOCC3)CCCCC2)cc(Cl)c1OC(C)C | inactive: -0.685% |
| CCOP1(=S)c2c(C)nn(CCC#N)c2N=C(c2ccc(F)cc2)N1C (configuration not stated) | inactive: 3.53% |
| CN(C(=O)Cc1ccccc1)[C@@H]1CC[C@]2(CCCO2)C[C@H]1N1CCCC1 | inactive: -0.548% |
| N#CCCN(C(=O)COC(=O)C(O)(c1ccccc1)c1ccccc1)c1ccc(F)cc1 | inactive: -1.94% |
| CN(C(=O)Cc1ccc(Cl)c(Cl)c1)[C@H]1CC[C@@]2(CCCO2)C[C@@H]1N1CCCC1 | inactive: -0.648% |
| O=[N+]([O-])c1ccc2c(c1)nnn2O | inactive: 3.05% |
| CN(C)C(=O)c1cc([N+](=O)[O-])cc2c1-c1c(cc([N+](=O)[O-])cc1[N+](=O)[O-])C2=O | inactive: -3.96% |
| NC(=O)Nc1ccc([As](=O)(O)O)cc1 | inactive: -0.169% |
| Nc1ccccc1[As](=O)(O)c1ccccc1 | inactive: 0.328% |
| O=C(O)COc1ccc([As](=O)(O)O)cc1[N+](=O)[O-] | inactive: 1.24% |
| O=P(Nc1nccs1)(Oc1ccccc1)Oc1ccccc1 | inactive: 0.956% |
| O=P(Nc1nccs1)(c1ccccc1)c1nc2ccccc2s1 (configuration not stated) | inactive: -0.0861% |
| CCOP1(=S)c2c(C)nn(CCC#N)c2N=C(c2ccccc2F)N1C (configuration not stated) | inactive: -0.831% |
| CS(=O)(=O)c1cc([N+](=O)[O-])c2no[n+]([O-])c2c1 | inactive: 0.186% |
| O=c1c2cc([N+](=O)[O-])ccc2[nH]c2c([N+](=O)[O-])cc([N+](=O)[O-])cc12 | inactive: 0.451% |
| CN(C)C(=O)Oc1noc2ccccc12 | inactive: 0.393% |
| CC(NC(=O)COC(=O)C(O)(c1ccccc1)c1ccccc1)c1ccccc1 (configuration not stated) | inactive: 0.427% |

| Compound | inhibition |
| --- | --- |
| Cc1ccccc1OP(=O)(Nc1ccccn1)Oc1ccccc1C | inactive: -2.07% |
| CCC(=O)N1C2C3N(C(=O)CC)C1C1N(C(=O)CC)C(C(N1C(=O)CC)N3C(=O)CC)N2C(=O)CC | inactive: 0.941% |
| O=C(OC1CN2CCC1CC2)c1ccccc1 (configuration not stated) | inactive: -0.126% |
| CC(=O)NC(SC(=S)N(CC(C)C)CC(C)C)C(Cl)(Cl)Cl (configuration not stated) | inactive: -1.3% |
| COC(=O)c1cc2c(s1)N=C(c1ccccc1)N(C)P2(=O)N1CCOCC1 (configuration not stated) | inactive: 0.102% |
| O=P1(N(CCCl)CCCl)OCCC2CCCCN21 (configuration not stated) | inactive: -5.91% |
| Cc1ccc(NP(=O)(Oc2cccc(C)c2)Oc2cccc(C)c2)nc1 | inactive: 0.993% |
| c1ccc(-c2nn[nH]n2)c(-c2nn[nH]n2)c1 | inactive: -1.49% |
| CCNC(=S)/N=C(\N)N[N+](=O)[O-] | inactive: 1.79% |
| O=C(NC1CCS(=O)(=O)C1)NP(=S)(Oc1ccccc1)Oc1ccccc1 (configuration not stated) | inactive: 2.43% |
| CC(=O)Nc1ccc(Oc2c([N+](=O)[O-])cc([N+](=O)[O-])cc2[N+](=O)[O-])cc1 | inactive: -4.62% |
| CC(=O)Nc1ccc([As](=O)(O)O)c(O)c1 | inactive: 0.487% |
| C[C@H]1OP(=O)(Oc2ccccc2)C[C@@H]2O[C@@H]21 (some centres not stated) | inactive: 2.77% |
| C[C@@H]1C=CCP(=O)(Oc2ccccc2)O1 (some centres not stated) | inactive: -1.68% |
| Cc1ccccc1CN(C)C(=O)COC(=O)C(O)(c1ccccc1)c1ccccc1 | inactive: -0.581% |
| COC(=O)C1(C)COP(=O)(NCc2ccccc2)OC1 (configuration not stated) | inactive: -0.0518% |
| CC(=O)c1ccc(N2CC2c2ccncc2)cc1 (configuration not stated) | inactive: -0.183% |
| N#C/C(=C\c1ccc(N(CCBr)CCBr)cc1)C(N)=O | inactive: -0.381% |
| CC(C)(C)C(=O)NC(Sc1ccccc1)C(Cl)(Cl)Cl (configuration not stated) | inactive: 0.398% |
| CCc1cc(O)c([N+](=O)[O-])c(C)c1[N+](=O)[O-] | inactive: 1.38% |
| CCOc1ccc(C2=NCC(CBr)S2)cc1 (configuration not stated) | inactive: 0.0511% |

| Compound | inhibition |
| --- | --- |
| O=P1(Nc2nc3ccc(Cl)cc3s2)COc2ccccc2O1 (configuration not stated) | inactive: 0.924% |
| c1nnnn1CCn1cnnn1 | inactive: 0.927% |
| CC(C)C(=O)NC(Sc1ccccc1)C(Cl)(Cl)Cl (configuration not stated) | inactive: -8.7% |
| O=P(Nc1nccs1)(c1ccccc1)c1ccccc1 | inactive: 0.884% |
| O=C(OC1CN2CCC1CC2)c1cccc(Cl)c1 (configuration not stated) | inactive: 0.513% |
| C(Cc1nn[nH]n1)Cc1nn[nH]n1 | inactive: -1.19% |
| Nc1ccc([As](=O)(O)c2ccc([N+](=O)[O-])cc2)cc1 | inactive: -0.167% |
| O=[As](O)(c1ccccc1)c1ccc(O)cc1 | inactive: 0.622% |
| O=[N+]([O-])c1ccc(O)c(/C=N/Nc2ccc([N+](=O)[O-])cc2[N+](=O)[O-])c1 | inactive: 0.404% |
| CC(=O)NC(SC(=S)N(C)C)C(Cl)(Cl)Cl (configuration not stated) | inactive: -0.109% |
| O=[N+]([O-])c1ncn(CCn2cnc([N+](=O)[O-])n2)n1 | inactive: -0.243% |
| C[C@H]1OP(=O)(Oc2ccccc2)[C@H](O)[C@H](O)[C@H]1N=[N+]=[N-] (some centres not stated) | inactive: 1.94% |
| O=P(Nc1nc2ccccc2s1)(c1ccccc1)c1ccccc1 | inactive: -1.11% |
| O=P(Nc1ccccn1)(c1ccc(Br)cc1)c1ccc(Br)cc1 | inactive: -5.71% |
| CN(C)C1(CNC(=O)c2ccc(Cl)c(S(N)(=O)=O)c2)CCCCC1 | inactive: -0.646% |
| COc1ccc(N)c([N+](=O)[O-])c1[N+](=O)[O-] | inactive: -1.27% |
| O=C(O)CNc1ccc([As](=O)(O)O)cc1 | inactive: -0.464% |
| COC(=O)C1(C)COP(=O)(Nc2ccccc2)OC1 (configuration not stated) | inactive: -0.572% |
| O=[N+]([O-])c1cccc(NC2=NCC(CBr)S2)c1 (configuration not stated) | inactive: 3.01% |
| O=[N+]([O-])c1ncn(CCn2ncnc2[N+](=O)[O-])n1 | inactive: -0.449% |
